Reference: patent US20250312338A1, “TREATMENT OF NEUROLOGICAL DISORDERS” (Praxis Precision Medicines, Inc., priority 2022, published 2025)

Chains of the proteins cited; added tags and fusions are not shown.
UniProt Q9UQD0, whole entry: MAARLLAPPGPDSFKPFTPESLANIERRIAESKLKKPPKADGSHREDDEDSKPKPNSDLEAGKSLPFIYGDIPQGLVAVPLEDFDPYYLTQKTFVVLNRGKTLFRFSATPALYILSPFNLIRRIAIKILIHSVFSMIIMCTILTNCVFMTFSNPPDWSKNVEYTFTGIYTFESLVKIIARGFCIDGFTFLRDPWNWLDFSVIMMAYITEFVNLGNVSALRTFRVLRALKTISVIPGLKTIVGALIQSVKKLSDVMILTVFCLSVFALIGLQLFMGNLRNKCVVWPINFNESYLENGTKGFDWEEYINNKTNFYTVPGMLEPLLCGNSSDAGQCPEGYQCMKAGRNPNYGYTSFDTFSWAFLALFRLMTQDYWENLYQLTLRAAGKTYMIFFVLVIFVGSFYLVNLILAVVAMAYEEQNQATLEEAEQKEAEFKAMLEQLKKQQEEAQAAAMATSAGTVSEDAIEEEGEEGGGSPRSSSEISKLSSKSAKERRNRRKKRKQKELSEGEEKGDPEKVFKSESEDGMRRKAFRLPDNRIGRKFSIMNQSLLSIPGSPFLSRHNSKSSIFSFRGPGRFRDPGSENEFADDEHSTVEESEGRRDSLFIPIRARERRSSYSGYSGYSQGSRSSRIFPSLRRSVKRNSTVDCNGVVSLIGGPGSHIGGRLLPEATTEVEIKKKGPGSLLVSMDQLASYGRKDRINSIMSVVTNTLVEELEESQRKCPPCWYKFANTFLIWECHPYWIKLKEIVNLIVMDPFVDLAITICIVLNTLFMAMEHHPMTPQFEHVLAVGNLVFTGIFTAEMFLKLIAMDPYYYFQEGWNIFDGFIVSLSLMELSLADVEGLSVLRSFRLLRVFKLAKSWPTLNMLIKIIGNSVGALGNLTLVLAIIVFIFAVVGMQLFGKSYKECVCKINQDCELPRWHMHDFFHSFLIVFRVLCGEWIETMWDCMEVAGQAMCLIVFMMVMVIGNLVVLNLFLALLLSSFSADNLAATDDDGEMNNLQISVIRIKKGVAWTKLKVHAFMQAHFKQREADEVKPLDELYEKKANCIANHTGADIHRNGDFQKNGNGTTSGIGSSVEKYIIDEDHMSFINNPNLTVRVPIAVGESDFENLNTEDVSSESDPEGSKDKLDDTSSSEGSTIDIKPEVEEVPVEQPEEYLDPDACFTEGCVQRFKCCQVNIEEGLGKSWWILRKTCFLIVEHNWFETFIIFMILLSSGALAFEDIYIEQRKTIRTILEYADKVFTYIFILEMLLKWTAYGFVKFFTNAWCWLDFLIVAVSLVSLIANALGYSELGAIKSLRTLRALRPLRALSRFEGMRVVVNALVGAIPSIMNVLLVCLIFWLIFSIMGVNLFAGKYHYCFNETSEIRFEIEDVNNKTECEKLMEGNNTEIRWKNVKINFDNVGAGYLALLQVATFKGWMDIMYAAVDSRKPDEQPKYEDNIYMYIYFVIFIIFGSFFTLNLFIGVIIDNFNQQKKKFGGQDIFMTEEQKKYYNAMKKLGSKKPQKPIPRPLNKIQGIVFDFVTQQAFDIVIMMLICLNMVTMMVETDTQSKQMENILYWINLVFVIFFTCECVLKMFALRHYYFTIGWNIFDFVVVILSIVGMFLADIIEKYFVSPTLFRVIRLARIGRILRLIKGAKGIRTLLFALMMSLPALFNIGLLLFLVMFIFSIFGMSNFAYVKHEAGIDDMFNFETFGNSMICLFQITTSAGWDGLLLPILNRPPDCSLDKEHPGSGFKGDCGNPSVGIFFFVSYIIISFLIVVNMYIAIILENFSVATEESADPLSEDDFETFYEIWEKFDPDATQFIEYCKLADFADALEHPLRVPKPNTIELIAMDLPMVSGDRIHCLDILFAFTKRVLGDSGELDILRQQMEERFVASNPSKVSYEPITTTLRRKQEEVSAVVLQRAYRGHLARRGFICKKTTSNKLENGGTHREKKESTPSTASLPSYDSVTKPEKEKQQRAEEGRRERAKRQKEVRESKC

Columns and labels:
CA1 pyramidal neurons = assay: Intrinsic excitability assay (evoked action potentials), brain slice whole-cell current clamp; format: cell-based, mouse
Description: Three hundred micrometer coronal hippocampal slices were cut on a vibratome (VT1200; Leica) for whole-cell patch-clamp experiments. Slices were incubated for a minimum of 1 hour in the incubation solution at room temperature before patching.
Brain slices were transferred to a submerged recording chamber on an upright microscope (Slicescope Pro 1000; Scientifica) and were perfused (2 ml/min) with the extracellular artificial cerebral spinal fluid (aCSF) recording solution at 32° C. […]
Studies were performed using whole-cell current clamp recording mode. […] Once baseline action potential firing was determined in the presence of the extracellular aCSF recording solution (baseline), Compound 1 (300 nM or 3 μM) was washed onto the slice for 5 minutes before repeating the action potential generating protocol (FIG. 1B).
Data were analyzed using Axograph X software. Individual action potentials were identified and counted using a +50 mV amplitude threshold relative to pre-event baseline. […] Action potential amplitudes were determined relative to the pre-event baseline at the +200 pA current injection step for each cell. […] For statistical comparisons between groups, the total number of action potentials fired per cell was calculated. […]

human NaV1.6 [1] = biological target: T1, human NaV1.6 (Homo sapiens, UniProt Q9UQD0); assay: Late (persistent) INa block, ATX-II activated, PatchXpress patch clamp; format: cell-based; conditions: hNaV1.6, all assay conditions
T1 construct: HEK-293 cell lines stably expressing either human NaV1.6 (NP_055006); expressed in transfected cells

human NaV1.6 [2] = biological target: T1, human NaV1.6; assay: Peak INa use dependent block (UDB-10 Hz), PatchXpress patch clamp; format: cell-based; conditions: hNaV1.6

NC(=O)N1c2ccccc2C=Cc2ccccc21 [Carbamazepine]
AP amplitude (CA1 pyramidal neurons; 0.3 μmol/L Compound 1, 45 μmol/L CBZ, +200 pA current injection): more pronounced reduction | intrinsic excitability as number of evoked APs (CA1 pyramidal neurons; at peak INa VDB IC50 equivalents: 0.3 μmol/L Compound 1, 45 μmol/L CBZ): more robust reduction | preference for persistent INa relative to peak INa (in words) (human NaV1.6 [1]): no preference for persistent INa | Ratio to Peak INa (TB) (TB / UDB-10 Hz) (human NaV1.6 [2]): 1.6
